Molecular target: human recombinant 5-HT2A receptor (Homo sapiens (Human), UniProt P28223)
Conditions: read-out: h-5-HT2A Ki

Amino acid sequences for entries named in this document (tags omitted). Residues count along the entry.
UniProt P28223, whole entry: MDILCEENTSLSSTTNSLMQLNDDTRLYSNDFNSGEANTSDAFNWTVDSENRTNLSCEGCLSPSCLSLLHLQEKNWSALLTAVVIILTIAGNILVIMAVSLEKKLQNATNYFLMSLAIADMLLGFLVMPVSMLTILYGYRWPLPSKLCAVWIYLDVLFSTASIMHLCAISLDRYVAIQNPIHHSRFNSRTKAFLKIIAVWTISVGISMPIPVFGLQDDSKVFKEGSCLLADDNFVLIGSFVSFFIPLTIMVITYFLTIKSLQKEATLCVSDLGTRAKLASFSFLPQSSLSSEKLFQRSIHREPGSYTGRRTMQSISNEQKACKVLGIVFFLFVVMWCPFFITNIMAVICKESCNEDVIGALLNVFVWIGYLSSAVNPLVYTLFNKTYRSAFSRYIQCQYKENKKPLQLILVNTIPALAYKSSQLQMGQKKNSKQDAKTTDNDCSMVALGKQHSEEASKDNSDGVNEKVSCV
UniProt P28335, 33-458 limits assumed: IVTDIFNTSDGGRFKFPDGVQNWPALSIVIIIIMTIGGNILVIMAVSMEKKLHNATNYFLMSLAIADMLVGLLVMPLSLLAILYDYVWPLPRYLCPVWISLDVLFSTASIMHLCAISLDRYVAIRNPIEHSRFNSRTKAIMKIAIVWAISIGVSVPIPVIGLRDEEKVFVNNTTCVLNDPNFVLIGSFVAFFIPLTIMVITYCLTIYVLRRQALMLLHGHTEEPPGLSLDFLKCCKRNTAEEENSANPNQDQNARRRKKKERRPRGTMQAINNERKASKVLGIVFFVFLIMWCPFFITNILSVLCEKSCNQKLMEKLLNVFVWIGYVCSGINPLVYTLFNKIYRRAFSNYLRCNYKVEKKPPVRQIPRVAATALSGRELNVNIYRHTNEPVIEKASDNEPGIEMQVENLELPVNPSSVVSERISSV

Row | SMILES | Ki [µM]
1 | Cc1cc(CN(C(=O)NCc2ccc(OCC(C)C)cc2)C2CCN(C)CC2)no1 | 0.01 to 0.1
2 | CC(C)COc1ccc(CNC(=O)N(Cc2cccc(F)n2)C2CCN(C)CC2)cc1 | 0.01 to 0.1
3 | CC(C)COc1ccc(CNC(=O)N(Cc2ncccc2F)C2CCN(C)CC2)cc1 | 0.01 to 0.1
4 | CC(C)COc1ccc(CNC(=O)N(Cc2cc[nH]c2)C2CCN(C)CC2)cc1 | 0.01 to 0.1
5 | Cc1cc(CN(C(=O)NCc2ccc(OCC(C)C)cc2)C2CCN(C)CC2)nn1CF | 0.01 to 0.1
6 | CC(C)COc1ccc(CNC(=O)N(Cc2ccc(C#N)cn2)C2CCN(C)CC2)cc1 | 0.01 to 0.1
7 | CC(C)COc1ccc(CNC(=O)N(Cc2nccc3ccccc23)C2CCN(C)CC2)cc1 | 0.01 to 0.1
8 | CC(C)COc1ccc(CNC(=O)N(Cc2cocn2)C2CCN(C)CC2)cc1 | 0.01 to 0.1
9 | CC(C)COc1ccc(CNC(=O)N(Cc2nccs2)C2CCN(C)CC2)cc1 | 0.01 to 0.1
10 | COCc1ccc(CNC(=O)N(Cc2ccc(F)cn2)C2CCN(C)CC2)cc1 | 0.01 to 0.1
11 | CC(C)COc1ccc(CNC(=O)N(Cc2ncc(F)cn2)C2CCN(C)CC2)cc1 | 0.01 to 0.1
12 | CC(C)COc1ccc(CNC(=O)N(Cc2cc(F)ccn2)C2CCN(C)CC2)cc1 | 0.01 to 0.1

Molecular target: human recombinant 5-HT2C receptor (Homo sapiens (Human), UniProt P28335)
Conditions: read-out: h5-HT2C Ki

Row | SMILES | Ki [µM]
13 | CC(C)COc1ccc(CNC(=O)N(Cc2cccc3cc[nH]c23)C2CCN(C)CC2)cc1 | 0.01 to 0.1
14 | CC(C)COc1ccc(CNC(=O)N(Cc2ccc(F)cn2)[C@@H]2CCN3CCC[C@@H]3C2)cc1 (racemic) | 0.01 to 0.1
15 | CN1CCC(N(Cc2ccc(F)cn2)C(=O)NCc2ccc(OC(F)F)cc2)CC1 | 0.01 to 0.1
16 | CC(C)COc1ccc(CNC(=O)N(Cc2ncc(F)cc2F)C2CCN(C)CC2)cc1 | 0.01 to 0.1
17 | CC(C)COc1ccc(CNC(=O)N(Cc2cccc3cccnc23)C2CCN(C)CC2)cc1 | 0.01 to 0.1
18 | CC(C)COc1ccc(CNC(=O)N(Cc2ccccn2)C2CCN(C)CC2)cc1 | 0.01 to 0.1
19 | CC(C)COc1ccc(CNC(=O)N(Cc2ccc(F)cn2)C2CCN(C)CC2(F)F)cc1 (racemic) | 0.01 to 0.1
20 | CC(C)COc1ccc(CNC(=O)N(Cc2ccc(C(F)(F)F)cn2)C2CCN(C)CC2)cc1 | 0.01 to 0.1
21 | Cc1ccc(CN(C(=O)NCc2ccc(OCC(C)C)cc2)C2CCN(C)CC2)s1 | 0.01 to 0.1
22 | CC(C)COc1ccc(CNC(=O)N(Cc2cn(C)cn2)C2CCN(C)CC2)cc1 | 0.01 to 0.1
23 | COc1ccc(CNC(=O)N(Cc2ccc(F)cn2)C2CCNCC23CC3)cc1 (racemic) | 0.01 to 0.1
24 | CC(C)COc1ccc(CNC(=O)N(Cc2cccs2)C2CCN(C)CC2)cc1 | 0.01 to 0.1
25 | CN1CCC(N(Cc2ccc(F)cn2)C(=O)NCc2ccc(OCC3CC3)cc2)CC1 | 0.01 to 0.1
26 | Cc1csc(CN(C(=O)NCc2ccc(OCC(C)C)cc2)C2CCN(C)CC2)c1 | 0.01 to 0.1
27 | COc1ccc(CN(C(=O)NCc2ccc(OCC(C)C)cc2)C2CCN(C)CC2)nc1 | 0.01 to 0.1
28 | CC(C)COc1ccc(CNC(=O)N(Cc2ncc(F)cn2)C2CCN(C)CC2)cc1 | 0.01 to 0.1

Same assay, conditions: read-out: h-5-HT2C Ki

Row | SMILES | Ki [µM]
29 | CC(C)COc1ccc(CNC(=O)N(Cc2cc(F)n(C)n2)C2CCN(C)CC2)cc1 | 0.01 to 0.1
30 | Cc1cc(CN(C(=O)NCc2ccc(OCC(C)C)cc2)C2CCN(C)CC2)nn1CF | 0.01 to 0.1
31 | CC(C)COc1ccc(CNC(=O)N(Cc2ccn(C)n2)[C@H]2CCNC[C@H]2F)cc1 | 0.01 to 0.1

Reference: US12527775B2 (priority 2020, dated 2026)
